# In patent US20240301055A1 (IMMUTEP PARC CLUB ORSAY, published 2024):
# T1: human LAG-3 protein (hLAG-3, CD223) on hLAG-3-transfected CHO cells or on activated human T cells (human, UniProt P18627 23-525)
# T1 sequence (looked up): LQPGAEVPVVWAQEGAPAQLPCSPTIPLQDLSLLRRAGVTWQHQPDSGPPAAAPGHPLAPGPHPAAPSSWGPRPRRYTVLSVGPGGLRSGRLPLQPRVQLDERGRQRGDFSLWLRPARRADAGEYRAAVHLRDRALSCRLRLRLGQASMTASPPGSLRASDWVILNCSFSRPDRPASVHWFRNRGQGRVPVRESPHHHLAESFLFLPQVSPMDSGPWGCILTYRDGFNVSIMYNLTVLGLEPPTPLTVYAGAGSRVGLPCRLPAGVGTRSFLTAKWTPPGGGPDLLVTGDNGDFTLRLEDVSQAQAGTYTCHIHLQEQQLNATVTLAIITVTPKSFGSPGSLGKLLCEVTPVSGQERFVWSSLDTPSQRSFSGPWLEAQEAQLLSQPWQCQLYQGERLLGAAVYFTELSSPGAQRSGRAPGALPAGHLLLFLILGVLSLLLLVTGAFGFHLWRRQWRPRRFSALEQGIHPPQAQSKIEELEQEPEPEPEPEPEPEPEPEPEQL
# Target: T1, human LAG-3 protein (hLAG-3, CD223) on …
# Test: cell-based or functional assay
binder,measurement,value
"IMP731 (chimeric A9H12 with human IgG1 Fc region and human Ckappa) (antibody, V domains shown) VH: QVQLKESGPGLVAPSQSLSITCTVSGFSLTAYGVNWVRQPPGKGLEWLGMIWDDGSTDYNSALKSRLSISKDNSKSQVFLKMNSLQTDDTARYYCAREGDVAFDYWGQGTTLTVSS VL: DIVMTQSPSSLAVSVGQKVTMSCKSSQSLLNGSNQKNYLAWYQQKPGQSPKLLVYFASTRDSGVPDRFIGSGSGTDFTLTISSVQAEDLADYFCLQHFGTPPTFGGGTKLEIKR","ADCC on CMV peptide-activated human T cells, EC50 for CD4+ T cells",1 ng/mL
same,"ADCC on CMV peptide-activated human T cells, EC50 for CD8+ T cells",0.7 ng/mL
